Assay results from PubChem BioAssay AID504444 (National Center for Advancing Translational Sciences (NCATS), 2011).
The list shows a part of the results, in another mix than the full data. Inconclusive results are not listed. Where a call stands in place of a potency, no number is given. The source made the active and inactive calls. Calls follow the shape of the dose curve; as a rule, active = well fitted inhibition curve with a large enough effect; inconclusive = small, poorly fitted or top-dose-only effect, or effect the other way; inactive = flat fitted curve, though single readings scatter.

assay: Nrf2 qHTS screen for inhibitors; details: A549 ARE-Fluc reporter, luciferase luminescence, 18-24 h; series mostly up to 46 µM; also: nearly all actives have a fitted effect of over 60% in size

SMILES | Potency
O=P1(N(CCCl)CCCl)OCCCN1CCCl (stereo not drawn) | inactive
COc1ccc2nc(NP(=O)(c3ccccc3)c3ccccc3)sc2c1 | inactive
COc1cc(I)ccc1[As](=O)(O)O | inactive
O=[N+]([O-])c1cc(Oc2ccc([N+](=O)[O-])cc2C(F)(F)F)cc([N+](=O)[O-])c1 | inactive
COc1ccc(N/C(=N/P(=O)(N2CCOCC2)N2CCOCC2)N2CCOCC2)cc1 | inactive
C[As](=O)(O)c1cccc(C(=O)O)c1 | inactive
O=[As](O)(c1ccc(O)cc1)c1ccccc1O | inactive
O=[N+]([O-])c1ccc(-c2cc([N+](=O)[O-])c(O)c([N+](=O)[O-])c2)cc1 | inactive
COc1cc(C(=O)NCC2(N3CCOCC3)CCCCC2)ccc1OCC(C)C | inactive
Cc1ccc(OP(=O)(Nc2ccc([N+](=O)[O-])cn2)Oc2ccc(C)cc2)cc1 | inactive
ClCCSc1nnc(-c2cccnc2)o1 | inactive
COC(=O)C1(C)COP(=O)(N2CCCCCC2)OC1 (stereo not drawn) | inactive
CC(C)NC(=O)NP(=O)(Oc1ccccc1)Oc1ccccc1 | inactive
O=C(OC1CN2CCC1CC2)c1cccc2[nH]cnc12 (stereo not drawn) | inactive
CCOC(=O)Nc1ccc([As](=O)(O)O)c(O)c1 | inactive
CC1CCNP(=O)(N(CCCl)CCCl)O1 (stereo not drawn) | inactive
CCCCOc1ccc(C(=O)NCC2(N3CCCCC3)CCCCC2)cc1OC | inactive
Cc1cc(SC(NC(=O)c2ccccc2)C(Cl)(Cl)Cl)nc(C(C)C)n1 (stereo not drawn) | inactive
CCOC(=O)Nc1cccc([As](=O)(O)O)c1 | inactive
Cc1cc(SC(NC=O)C(Cl)(Cl)Cl)ncn1 (stereo not drawn) | inactive
O=P(Nc1ccccn1)(c1cccc2ccccc12)c1cccc2ccccc12 | inactive
O=[N+]([O-])c1ccc(Nc2ccc(Oc3ccc([N+](=O)[O-])cc3[N+](=O)[O-])cc2)c([N+](=O)[O-])c1 | inactive
COP1(=S)c2c(C)nn(CCC#N)c2N=C(c2ccc(F)cc2)N1C (stereo not drawn) | inactive
O=C(COc1ccccc1)OC1CN2CCC1CC2 (stereo not drawn) | inactive
O=C(Nc1ccncc1[N+](=O)[O-])c1ccc([N+](=O)[O-])cc1[N+](=O)[O-] | inactive
O=C(OC1CN2CCC1CC2)c1cccc([N+](=O)[O-])c1 (stereo not drawn) | inactive
CCOC(=O)c1ccc(NC(=O)C(C)(CCl)SC)cc1 (stereo not drawn) | inactive
CCOP(=O)(Nc1cccc2cccnc12)OCC | inactive
